Compounds with a hit are over-represented: about 2.1% of the library has one in this group of screens.
Glioma ERSR ind – inducers of ER stress response in human glioma cells. U87-MG GRP78 promoter luciferase reporter, 16 h. Potency, µM, inactives show at the top dose activation, most hits filed as activators. hit rate 0.02% among 420,000; further: potency means the concentration at half of the fitted maximal effect; series mostly up to about 76 µM; % of control where 0% means no effect; nearly all actives have a fitted effect of over 35% in size
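Stably transfected U87-MG glioma cells carrying a GRP78-based luciferase sensor; 16 h compound incubation. Luminescence end-point read 10 min after Bright-Glo addition at room temperature.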
A549 tox – A549 cytotoxicity, counter-screen for Nrf2 inhibitors | A549 ARE-Fluc cells, CellTiter-Fluor viability, 18-24 h | AID 504648 | Potency, µM (top dose mostly 46 µM), for the others: at the highest dose activity change, negative = cytotoxicity, actives largely listed as inhibitors | hit rate 0.16% among 390,000; further: potency means the concentration at half of the fitted maximal effect; on the % scale 0 is the no-effect control and ±100 the full control effect
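A549 ARE_Fluc cells in 5% FBS OPTI-MEM were exposed to compounds in concentration-response for 18-24 h at 37 deg C. Viability was read by CellTiter-Fluor fluorescence (Ex 405/Em 525) after 30 min, before the luciferase read.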
Nrf2 block – inhibitors of Nrf2 signaling; A549 ARE-Fluc reporter, luciferase luminescence, 18-24 h; Potency, µM (doses to about 46 µM), inactives show at the highest dose activity change, negative = inhibition, hits mostly inhibitors; hit rate 2.1% among 360,000; AID 504444; further: potency means the concentration at half of the fitted maximal effect; on the % scale 0 is the no-effect control and ±100 the full control effect; nearly all actives have a fitted effect of over 60% in size
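Reporter: ARE-Fluc in A549. Exposure: 18-24 h, 37 °C, 5% CO2, 5% FBS OPTI-MEM. Readouts: fluorescent cytotoxicity (CellTiter-Fluor), then luminescent Nrf2 signal after BugLite.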
PTAP TSG101 blk – blocks PTAP/TSG101 interaction to inhibit HIV-1 budding | Q99816 | Fluorescence polarization, FITC-PTAP peptide / Tsg101 binding | Potency, µM (highest dose often 115 µM), for the others: at the top dose activity change, negative = inhibition, hits mostly inhibitors | 340,000 tested, under 10 active | AID 493005; active means well fitted inhibition curve with a large enough effect in the main read-out, with a control signal flat, not every such curve was filed as active; inconclusive means small, poorly fitted or top-dose-only effect, or effect the other way, or a change in a side signal; inactive means no such curve, though single readings can be large or run the other way; further: potency means the concentration at half of the fitted maximal effect; % of control where 0% means no effect
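FP read-out: FITC-PTAP peptide, 50 nM final, binding Tsg101 binding domain, 10 uM final; 20 min, r.t.; 10 mM HEPES pH 7.5, 0.15 M NaCl, 0.01% Tween 20, 3 mM EDTA, 0.1 mM TCEP.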
Nrf2 activator – activators of Nrf2 (ARE) signaling | AREc32 ARE-luciferase reporter (MCF7-derived line), luminescence, 24 h | Potency, µM (highest dose often 46.1 µM), for inactives: at the highest dose activation, actives largely listed as activators | hit rate 0.31% among 410,000 | AID 624171; further: potency means the concentration at half of the fitted maximal effect; % of control where 0% means no effect; nearly all actives have a fitted effect of over 65% in size
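Luminescent ARE reporter assay in AREc32_Fluc cells: overnight plating at 37 deg C, 24 hr compound incubation, Steady-Glo added, 30 min RT before reading.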
miR-21 reporter – miR-21 reporter, rising signal. 340,000 tested, under 10 active. Potency, µM (highest dose often 38.3 µM), for the others: at the highest dose reporter change, positive = more light. HeLa miR-21 FLuc reporter, luciferase, 48 h. AID 2288; active = well fitted rising curve with a large enough effect; inconclusive = small, poorly fitted or top-dose-only effect; inactive = no such curve, though single readings can be large or run the other way;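 further: % of control where 0% means no effect; miR-21 action dims this reporter so a rising signal means less miR-21 action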
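HeLa miR-21-FLuc reporter line, endogenous miR-21; 2000 cells/well in DMEM/10% FBS; compound titration up to ~40uM final, 48 h, 37 degree Celsius; luciferase detection reagent, 15 min lysis, CCD luminescence.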
An asterisk follows results filed as active; ? = inconclusive; . = no result given. Unless noted, the call rests on the fitted dose curve; in most records, active means well fitted curve in the direction sought with a large enough effect; inconclusive means small, poorly fitted or top-dose-only effect, or another doubt; inactive means no such curve, though single readings can be large; an effect the other way counts as inactive or inconclusive.

SMILES | Glioma ERSR ind | A549 tox | Nrf2 block | PTAP TSG101 blk | Nrf2 activator | miR-21 reporter
O=C(Nc1nccs1)[C@@H]1CC=C[C@@H]2CCN(Cc3ccc(Cl)c(Cl)c3)C(=O)[C@@H]21 | -3.1% | . | . | . | . | .
COc1ccccc1C1CN(Cc2cccc(C)n2)Cc2ccccc2O1 (stereo not given) | -3.9% | . | . | . | . | .
CCc1ccc(OCC(=O)NNC(=S)NC(=O)C2CCCCC2)c(Br)c1 | 13.4% | -1.6% | 2.3% | -11.1% | 3.0% | -19.9%
CCc1ccc(OCC(=O)NNC(=S)NC(=O)C2CC2)c(Br)c1 | 3.5% | -15.4% | 6.51µM* | -4.6% | -0.5% | 13.1%
COc1ccc2[nH]c(C)cc2c1 | 1.7% | . | . | . | . | .
NC(N)=NCCCC(N)C(=O)O (stereo not given) | -2.6% | . | . | . | . | .
CCc1nnc(NC(=O)c2ccncc2)s1 | 2.8% | -6.8% | 9.6% | 0.2% | -0.3% | -15.0%
CCc1nnc(NC(=O)c2cc(S(=O)(=O)N(CC)CC)ccc2Cl)s1 | 2.1% | -16.9% | 16.4µM* | -2.0% | 2.9% | 0.4%
CCc1nnc(NC(=O)c2cccc(C(=O)Nc3nnc(CC)s3)n2)s1 | -2.1% | ? | 0.259µM* | -4.3% | 3.5% | -1.4%
N#CC1=C(N)Oc2c(ccc3ccccc23)C1c1cccs1 (stereo not given) | -2.9% | ? | ? | -4.2% | 2.82µM* | -7.5%
N#CC1=C(N)Oc2cc(O)ccc2C1c1cccs1 (stereo not given) | -4.2% | -4.5% | . | -4.8% | 0.4% | 7.0%
CCSC1(SCC)N=C(N)C2(C#N)C(c3ccccc3)NC3=C(CCC3)C12C#N (stereo not given) | -8.8% | 3.8% | 1.3% | -9.8% | 14.1µM* | -3.5%

Record cards, as listed above. Screens in order: Glioma ERSR ind | A549 tox | Nrf2 block | PTAP TSG101 blk | Nrf2 activator | miR-21 reporter
`CCSC1(SCC)N=C(N)C2(C#N)C(c3ccccc3)NC3=C(CCC3)C12C#N` (stereo not given) across the screens: -8.8% | 3.8% | 1.3% | -9.8% | 14.1µM* | -3.5%
`N#CC1=C(N)Oc2c(ccc3ccccc23)C1c1cccs1` (stereo not given) across the screens: -2.9% | ? | ? | -4.2% | 2.82µM* | -7.5%
`O=C(Nc1nccs1)[C@@H]1CC=C[C@@H]2CCN(Cc3ccc(Cl)c(Cl)c3)C(=O)[C@@H]21` across the screens: -3.1% | . | . | . | . | .

The main list resumes with the two entries that preceded the break.
SMILES | Glioma ERSR ind | A549 tox | Nrf2 block | PTAP TSG101 blk | Nrf2 activator | miR-21 reporter
N#CC1=C(N)Oc2cc(O)ccc2C1c1cccs1 (stereo not given) | -4.2% | -4.5% | . | -4.8% | 0.4% | 7.0%
CCSC1(SCC)N=C(N)C2(C#N)C(c3ccccc3)NC3=C(CCC3)C12C#N (stereo not given) | -8.8% | 3.8% | 1.3% | -9.8% | 14.1µM* | -3.5%
N#CC12C(N)=NC3(OCCO3)C1(C#N)C1=C(CCC1)NC2c1ccccc1 (stereo not given) | -2.8% | -1.5% | -22.2% | 1.1% | 3.2% | 0.9%
CC1(C)N=C(SCC(=O)Nc2ccc(Cl)cc2)C(c2ccc(Cl)cc2)=N1 | -2.8% | ? | 25.9µM* | -5.3% | 16.2% | 28.5%
Cc1cccnc1CCNC(=O)CC1C(=O)NCCN1CC1CCCCC1 (stereo not given) | 3.7% | 1.9% | 23.1µM* | -7.8% | 1.3% | 0.4%
O=C(CCN1CCc2ccccc2CC1)c1ccc2c(c1)OCCO2 | -8.2% | . | 18.4µM* | -1.9% | ? | ?
CCN(CCCCO)c1nc(C)nc2c1c(C)c(C)n2-c1c(C)cc(C)cc1C | 1.6% | . | . | . | . | .
CC(=O)C(Cl)C(=O)Nc1ccccc1 (stereo not given) | -8.5% | -4.2% | ? | -0.7% | 6.8% | 15.8%
O=C(Nc1ccccc1)C(Cl)C(=O)c1ccccc1 (stereo not given) | 5.1% | 1.8% | 2.0% | -0.6% | 14.1µM* | -28.1%
O=[N+]([O-])c1ccc(N2CCOCC2)nc1 | -3.0% | ? | -10.4% | -5.6% | -0.9% | -4.9%
O=C(c1ccc(F)cc1F)C1CCN(c2ccc([N+](=O)[O-])cn2)CC1 | 0.1% | -16.8% | 23.1µM* | -2.6% | 0.6% | 1.7%
O=C1C=CC(=O)c2c(O)c(Cl)c(Cl)c(O)c21 | -3.8% | . | . | . | . | .
O=C1C=CC(=O)c2c(O)c(CO)c(CO)c(O)c21 | 5.1% | 16.4µM* | 23.1µM* | ? | 8.4% | .
O=C(Nc1ccc(Br)c(Cl)c1)C1CC1 | -3.2% | -10.3% | 14.6µM* | -2.8% | 2.4% | -0.4%
CCOc1ccc(N(CC(=O)Nc2ccc(C)c(C)c2)S(=O)(=O)c2c(C)noc2C)cc1 | -5.1% | -12.2% | 13µM* | -1.8% | -0.3% | 27.8%
CCOc1ccc(N(CC(=O)Nc2cccc(F)c2)S(=O)(=O)c2c(C)noc2C)cc1 | -5.4% | -16.5% | 13µM* | -1.3% | -1.2% | 7.7%
CCOc1ccc(N(CC(=O)Nc2ccccc2C)S(=O)(=O)c2c(C)noc2C)cc1 | -5.8% | 0.7% | 26.7% | 0.0% | -2.2% | 20.6%
NCCCNCCCCNC(=O)C(O)NC(=O)CCCCCCN=C(N)N (stereo not given) | -4.6% | . | . | . | . | .
Nc1ccc2cccnc2c1 | -4.0% | . | . | . | . | .
CCCNS(=O)(=O)c1ccc(CCC(=O)Nc2cc(Cl)ccc2Oc2ccccc2)cc1 | -4.3% | ? | 16.4µM* | -0.9% | 3.3% | ?
CC(C)CNS(=O)(=O)c1ccc(CCC(=O)Nc2cc(Cl)ccc2Oc2ccccc2)cc1 | -2.4% | -0.9% | . | 1.3% | 4.4% | 20.3%
CCOc1ccc(Oc2ccccc2NS(=O)(=O)c2ccc(CCC(=O)O)cc2)cc1 | -3.2% | -13.7% | 10.3µM* | 0.5% | -0.9% | .
CC(=O)c1cccc(Nc2nc(-c3sc(C)nc3C)cs2)c1 | 1.2% | -16.0% | 23.1µM* | -2.3% | 5.7% | 8.8%
COc1cccc(CN2Cc3cccc4c3[C@H](C=CC4)CC2=O)c1 | -5.2% | . | . | . | . | .
O=C(c1ccc2c(=O)n3c(nc2c1)CCCCC3)N1CCN(c2ccc([N+](=O)[O-])cc2)CC1 | -5.5% | ? | 23.1µM* | -5.2% | -0.3% | -2.0%
O=C(c1ccc2c(=O)n3c(nc2c1)CCCCC3)N1CCN(C(c2ccccc2)c2ccccc2)CC1 | -3.4% | -16.7% | 20.6µM* | 2.2% | -0.5% | 19.6%
N#Cc1nc(Nc2cc(F)cc(F)c2)c2ncn(C3CCCC3)c2n1 | . | -5.1% | ? | . | . | .
CN(C)c1nc(NC2CCC(NC(=O)c3ccc(F)c(F)c3)CC2)nc2ccccc12 (stereo not given) | 5.3% | . | . | . | . | .
Cc1c(C(=O)NCC2(N3CCOCC3)CCCCCC2)cnn1-c1nccc(-c2ccccc2F)n1 | -0.6% | . | . | . | . | .
CCOC(=O)c1c(C)[nH]c(C)c1C(=O)Cn1nnc(-c2ccccc2C)n1 | 0.6% | -28.1% | 13µM* | -6.1% | 0.4% | -4.8%
N#Cc1ccc(S(=O)(=O)N2CCN(S(=O)(=O)c3ccc4c(c3)OCCO4)CC2)cc1 | . | -0.9% | 16.3% | . | . | .
Cc1c(C)c2cccnc2c2ncccc12 | -7.6% | 5.8µM* | ? | -5.8% | 4.4% | .
CCc1nn2c(=O)cc(NC3CNC3)nc2s1 | . | -0.6% | 7.6% | . | . | .
CCOC(=O)C(=Cc1ccc(-n2ccnc2)cc1)C(=O)OCC | -14.7% | ? | ? | 0.7% | ? | ?
CCOC(=O)C(=Cc1ccc(Br)cc1)C(=O)OCC | -14.6% | ? | 18.4µM* | -12.9% | ? | ?
CCC1CN(C(=O)NCc2ccc(C)cc2)c2ccccc2O1 (stereo not given) | 0.8% | 6.3% | ? | -3.6% | -0.6% | -2.9%
CCC1CN(C(=O)NCc2ccc(F)cc2)c2cc(C)ccc2O1 (stereo not given) | -1.6% | ? | 20.6µM* | -6.2% | -0.2% | ?
COc1cc(=O)n2c(c1C(=O)NCc1nonc1C)CCN(C(=O)c1cccc(C)c1C)CC2 | 1.0% | . | . | . | . | .
